US20250223281A1, “ANTIDIABETIC COMPOUNDS AND COMPOSITIONS” (REZUBIO PHARMACEUTICALS CO., LTD, priority 2022, published 2025)
Values belong to the compound of their own block, whether it stands above or below them.

Protein sequences, listed by entry. Tags and fused reporters are not part of them.
UniProt O14842, whole entry: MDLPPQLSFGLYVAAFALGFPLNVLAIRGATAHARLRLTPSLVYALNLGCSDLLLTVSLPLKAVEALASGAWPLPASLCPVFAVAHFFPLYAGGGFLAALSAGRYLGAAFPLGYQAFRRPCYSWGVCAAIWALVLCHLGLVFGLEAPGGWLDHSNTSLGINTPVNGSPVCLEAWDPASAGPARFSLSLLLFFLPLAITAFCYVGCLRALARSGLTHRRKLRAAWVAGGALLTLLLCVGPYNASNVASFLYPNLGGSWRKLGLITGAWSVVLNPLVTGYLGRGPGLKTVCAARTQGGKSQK

Biological target: GPR40 (Homo sapiens, UniProt O14842)
Assay: IP1 accumulation assay in HEK293 cells stably expressing GPR40
Procedure: IP1 accumulation assay was used to evaluate the potency of compounds. HEK293 cells stably expressing GPR40 were cultured in 5% CO2 incubator (ThermoFisher) in maintenance media (Dulbecco's modified Eagle's medium with 4.5 g/L of glucose, 10% fetal bovine serum, 100 μg/mL Hygromycin, and Penicillin (100 U/mL)/Streptomycin (100 μg/mL)) till 100% confluency. Cells were harvested freshly, spun down at 300×g for 5 min, and resuspended in pre-warmed 1× stimulant buffer from Cisbio IP-One HTRF Detection kit (Cisbio). Cell density was adjusted to 2.0×10^6 cells/mL. DMSO was used as blank control and AMG-1638 (CAS #: 1142214-62-7) as positive control. Compounds were prepared at 10 mM in DMSO and 5 nL of 3× serially diluted compounds (10 concentrations) were added to each well of the 384-LDV assay plate (Corning) by using ECHO 550 (Labcyte). Five μL of cells in suspension were transferred into each well by using Multidrop Combi Reagent Dispenser (ThermoFisher). Assay plate was then sealed and incubated at 37° C. for 2 hours. IP-d2 reagent and anti-IP1 reagent were prepared following the manual (Cisbio). Five μL of IP1-d2 and then 5 μL of anti-IP1 antibody was added to each well sequentially. Assay plate was incubated at room temperature for 60 min and then read at 665 nm/615 nm on an Envision plate reader (PerkinElmer). The ratio of values obtained at 665 nm and 615 nm was used for calculation of IP1 accumulation: % Effect=(Ratiosample−Ratioblank)/(RatioAMG-1638−Ratioblank)×100. Dose curve was fitted and EC50 of each compound was calculated by using XLFit.

- EC50 (IP1 accumulation, HEK293 cells stably expressing GPR40, 2 hours at 37° C., % effect relative to AMG-1638, table of Biological Example 1, tested form: chloride, dihydrochloride (drawing: 2HCl)): > 10 µM
- EC50 (Tables A-1a to A-7b (structure-property relationship), obtained by methods of Biological Example 1, tested form: chloride, dihydrochloride (drawing: 2HCl)): > 10 µM
SMILES: C[C@H](C(=O)O)[C@H](c1ccc2c(c1)O[C@@H](C1CCN(Cc3cc(-n4cc(CCCCCCCCC(=O)NCC[N+](C)(CCC(=O)NCCN)CCC(=O)NCCN)nn4)ccc3OC(F)(F)F)CC1)CC2)C1CC1

- EC50 (IP1 accumulation, HEK293 cells stably expressing GPR40, 2 hours at 37° C., % effect relative to AMG-1638, table of Biological Example 1, tested form: TFA): 1.36 µM
- EC50 (Table A-8 (additional examples), obtained by methods of Biological Example 1, tested form: TFA): 1.36 µM
SMILES: COc1ccc(C(=O)N(CC(C)(C)CCn2cc(COCCOCCOCCOCC(=O)NCCN(CCC(=O)NCCN)CCC(=O)NCCN)nn2)c2cccc(C)n2)c(N2CCC(COc3cc([C@@H](CC(=O)O)C4CC4)ccn3)CC2)c1

- EC50 (IP1 accumulation, HEK293 cells stably expressing GPR40, 2 hours at 37° C., % effect relative to AMG-1638, table of Biological Example 1): 0.631 µM
SMILES: COc1ccc(F)c(-c2ccc(COc3cccc([C@@H](CC(=O)O)C4CC4)c3)cc2CC(C)(C)Cn2cc(CCCCCCC(=O)NCCC[N+](C)(CC(=O)[O-])CC(=O)O)nn2)c1 (some centres unmarked)
